{
  "source": "patent US4956363A",
  "about": "“Treatment of cognitive and behavioral disorders associated with aging and with dementia syndromes” (U C B S.A., priority 1988, dated 1990)",
  "tested_on": "male NMRI mice",
  "experiment": "Toxicity, Irwin's test",
  "type": "in vivo",
  "conditions": "i.p., death of two animals out of three within 48 hours",
  "experimental": "The toxicity of the compounds of the formula I has been determined on male NMRI mice by means of the Irwin's test (S. IRWIN, Psychopharmacologia, 13, (1968), 222-257).\nProgressive doses of the compound to be tested are administered intraperitoneally to groups of three mice until the lethal dose is reached (dose which causes the death of two animals out of three within 48 hours).\nTable VI below gives the lethal dose observed for the compounds of the formula I to be used according to the invention.",
  "data": [
    {"compound": "CNC(=O)Oc1ccc2c(c1)[C@]1(C)CCN(C)[C@@H]1N2C", "note": "[physostigmine, reference compound]", "values": [
      {"measurement": "Lethal dose", "value": 0.82, "unit": "mg/kg"}
    ]}
  ]
}
